{
  "sequences": {"note": "The chains behind the UniProt entries cited, without tags or fusion partners.", "UniProt P05093, whole entry V366M": "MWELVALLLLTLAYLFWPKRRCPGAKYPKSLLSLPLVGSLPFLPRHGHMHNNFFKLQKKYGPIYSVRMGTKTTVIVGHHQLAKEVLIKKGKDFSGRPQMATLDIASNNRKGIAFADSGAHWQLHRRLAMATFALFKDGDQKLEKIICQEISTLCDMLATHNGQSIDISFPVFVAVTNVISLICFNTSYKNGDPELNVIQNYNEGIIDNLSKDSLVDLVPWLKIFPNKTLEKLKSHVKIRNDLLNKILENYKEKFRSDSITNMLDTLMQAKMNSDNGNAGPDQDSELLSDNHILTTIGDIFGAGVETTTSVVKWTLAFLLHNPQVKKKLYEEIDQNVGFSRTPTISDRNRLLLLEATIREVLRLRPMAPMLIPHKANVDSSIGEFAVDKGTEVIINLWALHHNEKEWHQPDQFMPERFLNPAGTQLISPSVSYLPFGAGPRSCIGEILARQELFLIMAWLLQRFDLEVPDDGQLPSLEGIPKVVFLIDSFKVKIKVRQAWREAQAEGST"},
  "source": "paper PMC6027421",
  "about": "(Pharmaceuticals, 2018)",
  "key": {"CYP17A1_V366M [1]": {"molecular_target": "T1, CYP17A1_V366M (Homo sapiens, UniProt P05093, V366M)", "type": "binding", "settings": "for Binding to V366M mutant (spectral): result in words; for Kd: spectral binding, 50 nM protein, 22 °C"}, "CYP17A1-V366M": {"test_system": "T2, CYP17A1-V366M", "T2 construct": "(His)4; made in house; host or cells: E. coli JM109", "assay": "17,20 lyase assay (17OH-PREG to DHEA), V366M CYP17A1", "type": "biochemical, human"}, "CYP17A1_V366M [2]": {"molecular_target": "T1, CYP17A1_V366M", "settings": "result in words; 17OH-PREG range 0–100 µM"}, "CYP17A1_V366M [3]": {"molecular_target": "T1, CYP17A1_V366M", "assay": "biochemical"}},
  "note": "Read-outs that look alike come from different tables or passages of the source.",
  "data": [
    {"smiles": "CC(=O)[C@@]1(O)CC[C@H]2[C@@H]3CC=C4C[C@@H](O)CC[C@]4(C)[C@H]3CC[C@@]21C", "note": "[17OH-PREG, 17α-hydroxypregnenolone]", "values": [
      {"measurement": "Binding to V366M mutant (spectral)", "setting": "CYP17A1_V366M [1]", "result": "not observed"},
      {"measurement": "17,20 lyase activity with 17OH-PREG as substrate", "setting": "CYP17A1-V366M", "result": "no activity"},
      {"measurement": "Inhibition of 17α-hydroxylation of PROG by V366M mutant", "setting": "CYP17A1_V366M [2]", "result": "no inhibition"}
    ]},
    {"smiles": "C[C@]12CC[C@H](O)CC1=CC[C@@H]1[C@@H]2CC[C@]2(C)C(c3cccnc3)=CC[C@@H]12", "note": "[Abiraterone, abiraterone]", "values": [
      {"measurement": "Binding to V366M mutant (spectral)", "setting": "CYP17A1_V366M [1]", "result": "this binding pattern was not observed"},
      {"measurement": "Binding to V366M mutant (spectral)", "setting": "CYP17A1_V366M [1]; listed as abiraterone", "result": "no binding was observed"}
    ]},
    {"smiles": "CC(=O)[C@H]1CC[C@H]2[C@@H]3CC=C4C[C@@H](O)CC[C@]4(C)[C@H]3CC[C@]12C", "note": "[PREG, pregnenolone]", "values": [
      {"measurement": "Kd", "setting": "CYP17A1_V366M [1]", "result": "92 ± 15", "unit": "nM"},
      {"measurement": "IC50", "setting": "CYP17A1_V366M [3]", "result": "1400 ± 200", "unit": "nM"}
    ]},
    {"smiles": "CC(=O)[C@H]1CC[C@H]2[C@@H]3CCC4=CC(=O)CC[C@]4(C)[C@H]3CC[C@]12C", "note": "[PROG, Progesterone]", "values": [
      {"measurement": "Kd", "setting": "CYP17A1_V366M [1]", "result": "287 ± 35", "unit": "nM"},
      {"measurement": "Vmax, 17α-Hydroxylase PROG to 17OH-PROG", "setting": "CYP17A1 V366M; PROG as substrate", "result": 0.42, "unit": "min⁻¹"},
      {"measurement": "Km", "setting": "CYP17A1 V366M; read-out: Km, 17α-Hydroxylase PROG to 17OH-PROG, PROG as substrate, CYP17A1:POR 1:2, 37 °C", "result": "8.4 ± 0.9", "unit": "µM"},
      {"measurement": "Cat Eff, 17α-Hydroxylase PROG to 17OH-PROG", "setting": "CYP17A1 V366M; relative to WT", "result": 43, "unit": "%"}
    ]},
    {"smiles": "c1c[nH]cn1", "note": "[imidazole]", "values": [
      {"measurement": "Binding to V366M mutant (spectral)", "setting": "CYP17A1_V366M [1]", "result": "could bind"}
    ]}
  ]
}
